# Source: PMC9773353 (ACS Omega, 2022)
# Target: hCA II (Homo sapiens, UniProt P00918)
# Assay: Carbonic anhydrase inhibition assay
# Type: biochemical
# Details: text grading of Table 4 results
substance,measurement,value
"3-(3-(3,4-Dimethoxybenzoyl) thioureido) Benzoic Acid [Compound 21]",inhibition of hCA-II in words,did not show any inhibition
